From patent US8304182B2, “Methods of identifying anti-cancer agents and uses thereof” (The Trustees of the University of Pennsylvania, priority 2003, dated 2012) come the findings set out here.

The test system of one experiment is PARP-1 and lamin B1. Type of experiment: cell-based, mouse.
Experiment [1] concerns Clone HP17 (bax^−/−bak^−/−, shPARP-1) MEFs. As to conditions: clone HP17 cells, staurosporine, FIG. 3F.
In the next experiment the test system is bax^−/−bak^−/− MEFs. It counts as cell-based, mouse.

On to `O=c1[nH]ccc2c(O)cccc12` [DHIQ], for which the “apoptotic features of MNNG-treated wild-type cells in presence of PARP inhibitor” value with PARP-1 and lamin B1 was “apoptotic features persisted”. Also, in the experiment with wild-type MEFs, the “block of MNNG-induced cell death” value is reported as “partially”.

On to `O=C1NCCc2c(OCCCCN3CCCCC3)cccc21` [DPQ], for which the “apoptotic features of MNNG-treated wild-type cells in presence of PARP inhibitor” value in the experiment on PARP-1 and lamin B1 was “apoptotic features persisted”.

For `CN[C@@H]1C[C@H]2O[C@@](C)([C@@H]1OC)n1c3ccccc3c3c4c(c5c6ccccc6n2c5c31)C(=O)NC4` [staurosporine], the “cell death (cell survival by PI exclusion)” value in the experiment on wild-type MEFs is listed as “induced cell death”; in the experiment with bax^−/−bak^−/− MEFs it was “not in bax^−/−bak^−/− cells”. The cell death result in experiment [1] is given as “no cell death was observed”.
